{"source": "patent US10172835B2", "about": "“Anticancer agent composition” (J-Pharma Co., Ltd., priority 2014, dated 2019)", "test_system": "KO99L cells", "assay": "Combination studies with COMPOUND-JP, WST-1 viability, Chou-Talalay combination index", "format": "cell-based, murine", "details": "48 h, suboptimal concentrations, in combination with COMPOUND-JP"}
{"smiles": "CC(C)C[C@H](NC(=O)[C@H](Cc1ccccc1)NC(=O)c1cnccn1)B(O)O", "note": "[velcade, bortezomib, reference compound]", "values": [{"measurement": "combination effect with COMPOUND-JP on metabolic activity/cell survival (Combination Index)", "result": "potentiate"}]}
